The source of these data is PubChem BioAssay AID2263 (National Center for Advancing Translational Sciences (NCATS), 2010).

By UniProt entry, the sequences of proteins in these tests, tags left out.
UniProt P14618, whole entry, looked up: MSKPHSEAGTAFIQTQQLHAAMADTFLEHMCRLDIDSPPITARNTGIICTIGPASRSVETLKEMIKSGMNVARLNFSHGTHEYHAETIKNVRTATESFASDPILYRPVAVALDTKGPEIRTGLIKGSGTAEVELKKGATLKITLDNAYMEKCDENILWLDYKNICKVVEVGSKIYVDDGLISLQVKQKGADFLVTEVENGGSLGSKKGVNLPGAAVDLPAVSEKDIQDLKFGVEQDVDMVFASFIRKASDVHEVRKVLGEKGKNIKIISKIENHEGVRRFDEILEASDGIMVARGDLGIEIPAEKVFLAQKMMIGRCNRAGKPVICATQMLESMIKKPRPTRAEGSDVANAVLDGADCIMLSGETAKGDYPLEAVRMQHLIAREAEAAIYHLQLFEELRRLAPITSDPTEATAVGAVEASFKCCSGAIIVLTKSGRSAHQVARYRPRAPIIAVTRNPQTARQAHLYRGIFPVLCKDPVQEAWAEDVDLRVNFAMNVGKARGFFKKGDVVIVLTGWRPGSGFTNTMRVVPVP

Each structure is given as a SMILES string. The list shows a part of the results, in another mix than the full data. Records with an inconclusive call do not appear. Activity calls are given as the source filed them. The call rests on the fitted dose curve; in most records, active means well fitted inhibition curve with a large enough effect; inconclusive means small, poorly fitted or top-dose-only effect, or effect the other way; inactive means flat fitted curve, though single readings scatter.

This assay deals with Pyruvate kinase PKM (Homo sapiens) (UniProt P14618). The assay can be described thus: Confirmation Concentration-Response Assay for Inhibitors of Human Muscle isoform 2 Pyruvate Kinase. The settings on record: purified hPK-M2, Kinase-Glo ATP luminescence, 1 h. An excerpt:
NIH Chemical Genomics Center [NCGC] Matthew G. Vander Heiden, M.D., Ph.D. [Harvard Medical School, 77 Avenue Louis Pasteur, Boston, MA 02115] MLPCN Grant: 1 R03 MH085679-01 NCGC Assay Overview: Human pyruvate kinase muscle 2 (hPK-M2) enzyme was supplied as a highly purified (>95% pure) preparation from Harvard Medical School and assayed for its ability to generate ATP from ADP using phosphoenolpyruvate (PEP) as a substrate. ATP generation was detected in a coupled reaction by luciferase-mediated luminescence, an ATP-dependent process. Pyruvate kinase substrates, PEP and ADP, were present in the assay at Km and approximately 10-fold below Km respectively. The enzyme was assayed at an intermediate level of activity to screen for both inhibitors and activators.
NCGC Assay Protocol Summary: Three uL of substrate mix (at r.t.) in assay buffer (50 mM Imidazole pH7.2, 50 mM KCl, 7 mM MgCl2, 0.01% Tween 20, 0.05% BSA) was dispensed into white solid bottom 1,536 well microtiter plates so that the final concentrations of substrates in the assay were 0.1 mM ADP and 0.5 mM PEP. 23 nL of compound were delivered by a pin tool and 1 uL of enzyme mix in assay buffer (4 degree Celsius) was added. […] Two uL of detection mix (Kinase-Glo, Promega; at 4 degree Celsius protected from light) was added and luminescence read by a ViewLux (Perkin Elmer) at 5 second exposure/plate. […]
`Nc1ncnc2c1ncn2[C@@H]1O[C@H](COP(=O)(O)O)[C@@H](O)[C@H]1O`: the Potency was active: 6.51 µM.
For `Nc1ncnc2c1ncn2C1OC(COP(=O)(O)O)C(O)C1O` (configuration not stated) the value was active: 6.51 µM.
